Consider one substance from patent publication US20050074404A1, “Methods for avoiding renal injury” (Pfizer Inc., priority 2002, published 2005).

The nature of data set [1]: Urinary albumin concentrations in rats. Format: in vivo, rat. As to conditions: after a single dose at 100 mg/kg. Here is the method:
(§1) Male Sprague Dawley rats (105-125 grams each) were purchased from Charles River (Kingston, N.Y.). Gentamicin sulfate, 100 mg/mL, was purchased from Fermenta Animal Health Co. (Kansas City, Mo., catalog #568-2589, 2417). Rats were dosed intramuscular, using a 25 gauge tuberculin syringe. The animals were housed individually prior to urine collection. For the urine collection, rats were transferred to individual metabolism cages. At all times throughout the study, the animals had free access to food and water. Forty-eight rats were divided equally into two dosage groups: 0 mg/kg (control) and 100 mg/kg gentamicin. Rats were dosed once per day for the duration of 1, 4 or 9 days. Urine was collected after one dose, four doses and nine doses. Each collection period was for 24 hours. Urine was collected, chilled to approximately 4° C. and protected from light. Total urine volume was measured at the end of each collection period prior to retinol analysis. The urine was stored at −80° C. and in darkness to protect the components of the urine from oxidation and degration until analysis.

The nature of data set [2]: Urinary retinol concentrations in rats (HPLC). Format: in vivo, rat. Particulars: after a single dose at 100 mg/kg. Here is the method: A. Dosing of Mammals, Collection and Storage of Urine
as §1, with “The urine was stored at −80° C. and in darkness to protect the components of the urine from oxidation and degration until analysis.” left out
The HPLC instrumentation consisted of a Hewlett-Packard Model 1090 Series II system (Hewlett Packard Company, Palo Alto, Calif.) equipped with a tertiary gradient pump, diode array detector, and a cooled auto-sampler. […] Absorbance data for all retinols was collected at a wavelength of 340 nm. […]

Take Gentamicin sulfate: the Albumin excretion entry in data set [1] is reported as “significant increase”. For the same substance, in data set [2], the Retinol excretion result is “significant increase”.
